Experiments:
[1] = molecular target: T1, estrogen receptor (wild-type ESR1) (Homo sapiens, UniProt P03372); conditions: clone #4, serial dilution of inhibitor in the presence of 64 pM of estrogen, 6 hours
Description: (§1) The luciferase reporter activity was measured.
as §1, §1
(§2) The luciferase reporter activity was measured 24 hours post-transfection.

Amino acid sequences for entries named in this document (tags omitted). Chains listed by the source or under a name are the forms on record and can include a tag or linker.
UniProt P03372, whole entry: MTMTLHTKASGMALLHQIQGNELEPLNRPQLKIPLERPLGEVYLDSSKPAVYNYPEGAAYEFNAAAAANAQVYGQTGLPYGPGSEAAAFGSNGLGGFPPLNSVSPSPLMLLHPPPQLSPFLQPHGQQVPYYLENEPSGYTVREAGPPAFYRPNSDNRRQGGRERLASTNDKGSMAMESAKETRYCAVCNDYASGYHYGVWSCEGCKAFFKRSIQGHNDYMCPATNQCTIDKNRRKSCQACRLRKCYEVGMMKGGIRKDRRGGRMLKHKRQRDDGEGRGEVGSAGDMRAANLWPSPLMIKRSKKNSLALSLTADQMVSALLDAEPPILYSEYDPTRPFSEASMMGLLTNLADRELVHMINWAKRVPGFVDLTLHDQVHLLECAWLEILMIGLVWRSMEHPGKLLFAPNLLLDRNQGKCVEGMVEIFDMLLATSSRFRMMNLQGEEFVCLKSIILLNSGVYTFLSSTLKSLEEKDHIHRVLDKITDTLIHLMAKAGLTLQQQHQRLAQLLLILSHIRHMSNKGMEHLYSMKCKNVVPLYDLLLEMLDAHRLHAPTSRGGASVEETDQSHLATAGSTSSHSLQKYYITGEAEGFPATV
UniProt P03372, with tags, fused parts or gaps INS344A: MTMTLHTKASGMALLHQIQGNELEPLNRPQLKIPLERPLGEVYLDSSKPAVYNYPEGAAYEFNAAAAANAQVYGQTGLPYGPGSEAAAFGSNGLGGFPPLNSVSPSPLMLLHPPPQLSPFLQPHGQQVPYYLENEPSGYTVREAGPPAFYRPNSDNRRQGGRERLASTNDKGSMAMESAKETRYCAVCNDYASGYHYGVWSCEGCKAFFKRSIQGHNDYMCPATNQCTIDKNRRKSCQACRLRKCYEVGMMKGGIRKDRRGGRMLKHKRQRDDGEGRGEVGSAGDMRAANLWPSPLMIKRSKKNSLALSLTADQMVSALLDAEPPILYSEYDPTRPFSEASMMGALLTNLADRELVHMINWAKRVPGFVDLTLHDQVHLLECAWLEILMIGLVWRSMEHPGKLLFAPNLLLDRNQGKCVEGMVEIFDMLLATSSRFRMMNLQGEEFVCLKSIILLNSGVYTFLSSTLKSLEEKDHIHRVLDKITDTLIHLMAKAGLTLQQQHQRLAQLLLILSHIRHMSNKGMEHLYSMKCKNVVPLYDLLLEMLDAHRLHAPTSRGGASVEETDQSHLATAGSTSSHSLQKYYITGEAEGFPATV
UniProt P03372, whole entry E380Q: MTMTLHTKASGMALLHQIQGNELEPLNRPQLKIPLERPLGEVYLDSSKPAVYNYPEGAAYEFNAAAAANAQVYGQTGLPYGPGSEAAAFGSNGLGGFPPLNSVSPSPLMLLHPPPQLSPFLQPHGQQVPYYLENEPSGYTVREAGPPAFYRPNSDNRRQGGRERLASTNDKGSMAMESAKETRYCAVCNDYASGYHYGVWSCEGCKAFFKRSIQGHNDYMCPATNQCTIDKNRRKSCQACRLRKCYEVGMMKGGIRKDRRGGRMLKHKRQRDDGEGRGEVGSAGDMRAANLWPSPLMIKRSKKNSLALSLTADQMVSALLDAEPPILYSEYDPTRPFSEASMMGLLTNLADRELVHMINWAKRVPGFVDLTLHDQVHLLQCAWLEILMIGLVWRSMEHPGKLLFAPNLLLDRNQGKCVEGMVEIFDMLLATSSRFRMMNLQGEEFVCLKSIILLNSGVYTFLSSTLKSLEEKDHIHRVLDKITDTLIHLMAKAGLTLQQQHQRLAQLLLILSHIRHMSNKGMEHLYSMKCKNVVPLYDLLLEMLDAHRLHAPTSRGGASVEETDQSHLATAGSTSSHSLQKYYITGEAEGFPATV

344insC mutant of ESR1 = 344insC mutant of ESR1 (Homo sapiens, UniProt P03372, INS344A); conditions: 344insC ESR1, inhibitor alone or inhibitor and estrogen, all-in-one method
Description: as §2

[2] = molecular target: E380Q mutant of estrogen receptor (Homo sapiens, UniProt P03372, E380Q); conditions: E380Q ESR1, compound alone or with estrogen
Description: as §2

[3] = molecular target: T1, estrogen receptor (wild-type ESR1); conditions: HEK 293, estrogen with or without inhibitor for 6 hours

C[C@]12CC[C@@H]3c4ccc(O)cc4C[C@@H](CCCCCCCCC[S+]([O-])CCCC(F)(F)C(F)(F)F)[C@H]3[C@@H]1CC[C@@H]2O (stereo partly shown) [fulvestrant]
inhibition of estrogen activation of the reporter [1]: block activation of the reporter by estrogen in a dose dependent manner
reporter activity (partial agonistic activity) of ER inhibitors (344insC mutant of ESR1): No partial agonistic activity
inhibitory activity on luciferase reporter activity [2]: inhibitory activity was detected
estrogen-induced luciferase reporter activity in the presence of ER inhibitor [3]: reduced
